Assays:
KDR kinase (790-1356 AA) = KDR kinase (790-1356 AA) (Homo sapiens (Human), UniProt P35968); assay: Inhibitory activity at KDR kinase (Lance Ultra Ulight-TK assay); assay type: biochemical
Protocol: Inhibitory Activity of Compounds at KDR Kinase
• [Experimental method]: Use Lance@Ultra Ulight™-TK assay kit from PerKinElmer to evaluate the inhibitory activity of compounds at KDR kinase. • [Instrument]: PerKinElmer's ENVISION plate reader • [Materials]: Optiplate-384 well plate (PerKinElmer), kinase buffer (50 mM Hepes pH7.5, 0.25 mM EGTA, 2 mM DTT, 0.01% Tween 20, 10 mM Mg^2+, 0.5 mM Mn^2+), KDR kinase (790-1356 AA, Crown Bioscience), KDR kinase substrate (PerKinElmer catalogue # TRF0127-M), Lance@Eu-W1024-anti-phosphotyrosine (PT66) (PerKinElmer, catalogue #AD0068), ATP (Invitrogen), DMSO (Sigma, catalogue #34869), purified water (Millipore, type: Milli-Q). • [Study conditions]: Mix KDR (final concentration: 20 nM) and compound (final DMSO: 0.5%), pre-incubate for 20 min at 30° C.; then add ATP (final concentration: 90 μM) and the substrate (final concentration […]). React for 2 hrs at 30° C. After the reaction, add antibody and reaction for 60 min at 30° C. Read the plate (615 nm, 665 nm), calculate the ratio of the value at 665 nm vs 615 nm and analyze the data. • [Samples]: Compounds in the examples and Sorafenib (positive control) • [Data Analysis]: Use CBIS data analysis software to calculate IC50 values

Amino acid sequences for entries named in this document (tags omitted). Residues count along the entry.
UniProt P35968, 790-1356: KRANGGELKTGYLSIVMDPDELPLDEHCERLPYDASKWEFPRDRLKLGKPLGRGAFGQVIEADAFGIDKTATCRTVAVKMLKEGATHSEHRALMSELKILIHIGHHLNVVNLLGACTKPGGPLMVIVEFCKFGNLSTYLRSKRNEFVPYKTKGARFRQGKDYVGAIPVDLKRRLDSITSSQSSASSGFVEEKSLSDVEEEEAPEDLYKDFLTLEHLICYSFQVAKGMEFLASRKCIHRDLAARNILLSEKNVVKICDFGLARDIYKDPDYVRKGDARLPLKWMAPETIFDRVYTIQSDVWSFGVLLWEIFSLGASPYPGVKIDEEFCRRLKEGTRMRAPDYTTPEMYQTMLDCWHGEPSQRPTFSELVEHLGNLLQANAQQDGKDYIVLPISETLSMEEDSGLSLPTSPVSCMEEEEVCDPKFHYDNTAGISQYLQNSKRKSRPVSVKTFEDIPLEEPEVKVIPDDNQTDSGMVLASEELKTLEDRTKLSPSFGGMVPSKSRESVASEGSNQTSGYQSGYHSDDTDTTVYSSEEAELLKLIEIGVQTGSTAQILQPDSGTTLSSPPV

pERK in MDA-MB-231 cells = assay: Inhibitory activity at pERK (In Cell Western, MDA-MB-231 cells); assay type: cell-based; settings: Homo sapiens, MDA-MB-231, MDA-MB-231 cells
Text: Inhibitory Activity of Compounds at pERK
• [Experimental method]: Use Acumen (TPP) to measure In Cell Western Blot results • [Instrument]: Acumen (TPP), Centrifuge (Thermo Scientific, Sorvall ST16R) • [Material]: MDA-MB-231 cells (ATCC), 96 well plate (BD, #356640), DMEM medium (Gibco, #11965-092), PBS (Invitrogen, #10010023), fetal bovine serum (Gibco, #16000044), BSA (Sigma, #A7030), DMSO (Sigma, #D2650); formaldehyde (Sinopharm), methanol (Sinopharm), 1^St antibody (anti-pERK antibody, Cell Signaling, #CST 4307s), 2nd antibody (FITC Donkey anti-rabbit IgG, Biolegend, #406403), Propidium Iodide (Invitrogen, #P3566), purified water (Millipore, type: Milli-Q). • [Protocol]: Grow MDA-MB-231 cells in DMEM medium (contains 10% FBS). When the cells reach 80% confluency, collect cells by trypsinization and centrifugation at 800 rpm for 3 minutes. Resuspend cells with appropriate volume of medium and count cell numbers. Adjust cell concentration to 70000 cells/mL, and split 100 μL cell suspension per well into 96-well plates. Transfer the plates into cell culture incubator (37° C., 5% CO2) and incubate cells overnight. […] Use Acumen (TPP) to measure the fluorescence. • [Samples]: Compounds in the examples and sorafenib (positive control) • [Data Analysis]: Use CBIS data analysis software to calculate IC50 values

IC50 (KDR kinase (790-1356 AA)): 14 nM
IC50 (pERK in MDA-MB-231 cells): 14 nM
Compound: Cc1cc(Oc2cc(NC(=O)C3CC3)ncn2)ccc1NC(=O)Nc1cc(C2CCN(C)CC2)cc(C(F)(F)F)c1 [Exe. 073]
